The entries are a selection whose mix differs from that of the whole data set. Some tests of the compounds listed are not included; inactive here does not mean inactive elsewhere. Calls of active or inactive are those of the source.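 The calls were made as follows: active = calcium signal cut by more than 3 SD below the full-agonist control yet still positive, in both repeats and the earlier primary screen; inactive = the rest.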

By UniProt entry, the sequences of proteins in these tests, tags left out.
UniProt Q9QUQ5, whole entry: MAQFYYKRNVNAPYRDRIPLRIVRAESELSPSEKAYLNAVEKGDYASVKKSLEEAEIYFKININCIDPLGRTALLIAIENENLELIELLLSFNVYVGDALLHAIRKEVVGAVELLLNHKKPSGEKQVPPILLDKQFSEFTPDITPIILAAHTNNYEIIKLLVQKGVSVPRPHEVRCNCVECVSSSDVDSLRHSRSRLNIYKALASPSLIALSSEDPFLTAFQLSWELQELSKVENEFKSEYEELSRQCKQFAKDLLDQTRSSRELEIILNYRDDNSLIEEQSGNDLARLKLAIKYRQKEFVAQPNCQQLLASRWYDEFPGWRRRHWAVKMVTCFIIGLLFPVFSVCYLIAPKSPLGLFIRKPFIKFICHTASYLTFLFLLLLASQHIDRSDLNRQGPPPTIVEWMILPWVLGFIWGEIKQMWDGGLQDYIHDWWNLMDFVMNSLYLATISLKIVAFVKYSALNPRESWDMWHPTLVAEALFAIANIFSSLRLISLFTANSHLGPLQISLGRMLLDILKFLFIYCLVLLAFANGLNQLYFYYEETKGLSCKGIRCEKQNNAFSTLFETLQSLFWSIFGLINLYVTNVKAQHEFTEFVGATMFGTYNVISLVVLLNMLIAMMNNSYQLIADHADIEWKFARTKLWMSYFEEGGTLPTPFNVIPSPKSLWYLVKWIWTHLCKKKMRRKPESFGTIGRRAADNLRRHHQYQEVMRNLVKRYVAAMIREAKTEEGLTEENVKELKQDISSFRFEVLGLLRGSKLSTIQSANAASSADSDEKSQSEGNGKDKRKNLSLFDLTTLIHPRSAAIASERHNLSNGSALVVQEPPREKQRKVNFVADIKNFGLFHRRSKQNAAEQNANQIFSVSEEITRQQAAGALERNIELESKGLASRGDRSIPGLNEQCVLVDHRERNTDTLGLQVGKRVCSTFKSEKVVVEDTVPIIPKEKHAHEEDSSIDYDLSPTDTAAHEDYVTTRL

For this assay, the target named is Short transient receptor potential channel 4 (Mus musculus) (UniProt Q9QUQ5). The assay can be described thus: blockers of DAMGO-evoked TRPC4 calcium flux – cell-based, Fluo4, HEK293 TRPC4beta/mu-opioid, confirmation (AID 2636). To be noted: at 10 µM. In general terms: A change in cytosolic calcium serves as a functional read-out for many receptors and channels.
`CN(C)c1ccc(C(=O)NCC2(N(C)C)CCCCC2)cc1`: the outcome was inactive.

For the origin of these results see PubChem BioAssay AID2636 (Johns Hopkins Ion Channel Center, 2010).
